GALK inh = blocks human galactokinase activity; P51570; AID 1868; Potency, µM (titrated, usually from 57.5 µM), for the others: at the highest dose activity change, negative = inhibition, most hits filed as inhibitors; Purified GALK, Kinase-Glo residual ATP luminescence; 270,000 tested, 0.007% active; also: potency is read from the fitted curve at half-maximal effect; % is scaled to controls: 0 for no effect and ±100 for the full control effect
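Kinase-Glo Plus luminescence measured ATP left after a 1 h room-temperature reaction. The reaction used 5 nM GALK, 100 uM galactose and 35 uM ATP at pH 8.0 (20 mM HEPES, 5 mM MgCl2, 60 mM NaCl, 1 mM DTT, 0.01% BSA).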
TrxR1 inh = blocks rat thioredoxin reductase 1; 390,000 tested, 1% active; AID 588453; recombinant rTrxR1, NADPH fluorescence consumption, selenite substrate; Potency, µM (doses to about 114 µM), for the others: at the top dose activity change, negative = inhibition, most hits filed as inhibitors; also: potency is read from the fitted curve at half-maximal effect; % is scaled to controls: 0 for no effect and ±100 for the full control effect; nearly all actives have a fitted effect of over 65% in size
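Rat TrxR1 (90 nM in the dispensed reagent) was pre-reduced with 400 uM NADPH for 5 min at room temperature, then incubated with compound for 15 min. After 400 uM selenite was added, NADPH fluorescence (Ex 340/Em 450 nm) was followed for 8 min.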
miR-21 FLuc = miR-21 reporter, rising signal. HeLa miR-21 FLuc reporter, luciferase, 48 h. Potency, µM (titrated, usually from 38.3 µM), without a hit: at the top dose reporter change, positive = more light. 340,000 tested, under 10 active. AID 2288; active = well fitted rising curve with a large enough effect; inconclusive = small, poorly fitted or top-dose-only effect; inactive = no such curve, though single readings can be large or run the other way;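 also: % of control where 0% means no effect; miR-21 action dims this reporter so a rising signal means less miR-21 action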
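Luminescence from a firefly luciferase reporter carrying a miR-21 binding site downstream, stably expressed under a CMV promoter in HeLa cells that make miR-21 endogenously, reports miRNA modulation after 48 h compound exposure up to approximately 40uM final.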
PINK1 modulator = modulators of PINK1 expression; AID 624263; PINK1 immunofluorescence, high-content cytometry, 24 h; Potency, µM (series often up to 76.6 µM), for inactives: top-dose activation (PINK1 increase), most hits filed as activators; 410,000 tested, 0.2% active; active = well fitted activation curve with a large enough effect; inconclusive = small, poorly fitted or top-dose-only effect; cell line not stated here; also: potency is read from the fitted curve at half-maximal effect; % of control where 0% means no effect; nearly all actives have a fitted effect of over 65% in size
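Compound titrations (5 concentrations, 24 h) on a stable cell line; DMSO and CCCP controls. Endpoint: fixed-cell PINK1 immunofluorescence with mitochondrial, cell and nuclear markers, scanned by microplate cytometer.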
TrxR1 substrate = rat thioredoxin reductase 1 substrate activity; O89049; purified TrxR1 substrate turnover, NADPH consumption readout; Potency, µM (doses to about 114 µM), inactives show at the top dose activity change, negative = substrate turnover; 390,000 tested, 0.01% active; also: potency is read from the fitted curve at half-maximal effect; % is scaled to controls: 0 for no effect and ±100 for the full control effect; nearly all actives have a fitted effect of over 50% in size
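Rat TrxR1, dispensed at 90 nM, was prereduced with 400 uM NADPH (final) for 5 min at ~22 deg C, then incubated with compound 15 min before 400 uM selenite. A first-read NADPH fluorescence drop versus no-compound background flagged substrates.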
Numbers without * were called inactive; ! = repeats disagree; [ ] = remark or other dose. Only some compounds are listed: those with a hit (about 1.1% of all), similar ones and a draw of the others. Unless noted, calls follow the shape of the dose curve; as a rule, active = well fitted curve in the direction sought with a large enough effect; inconclusive = small, poorly fitted or top-dose-only effect, or another doubt; inactive = no such curve, though single readings can be large; an effect the other way counts as inactive or inconclusive.

Screening Cc1cc(-c2ccnc(-n3ncc(C(=O)NCC4COCCO4)c3C3CC3)n2)c(C)s1 (stereo not drawn) returned PINK1 modulator 4.1%.
Screening CCOc1cc(/C=C2\NC(=O)NC2=O)cc([N+](=O)[O-])c1O returned TrxR1 inh 50.1µM*, miR-21 FLuc -10.7%, PINK1 modulator 0.1% and TrxR1 substrate -10.7%.
`O=C(O)C(C(=O)/C=C/c1ccco1)=C1SCCS1` gave GALK inh -1.4%, TrxR1 inh 25.1µM*, miR-21 FLuc -31.4%, PINK1 modulator 0.5% and TrxR1 substrate -11.0%.
For O=C(/C=C/c1ccco1)NC1CCCC1 the results were GALK inh -0.5%, TrxR1 inh -76.6%, miR-21 FLuc -1.8%, PINK1 modulator -0.1% and TrxR1 substrate 12.2%[57.1 µM].
O=C(C=C1SCCS1)/C=C/c1ccco1 was read as GALK inh 0.5%, TrxR1 inh 39.8µM*, miR-21 FLuc -36.5%, PINK1 modulator -4.9% and TrxR1 substrate -8.7%.
CCOc1ccc(NC(=O)Cn2nnc(C(=O)OC)c2C(=O)OC)cc1 was read as TrxR1 inh 3.7%, miR-21 FLuc 3.7%, PINK1 modulator -0.8% and TrxR1 substrate -2.8%.
For COC(=O)c1ccc(N2C(=O)CC(Sc3n[nH]c(C)n3)C2=O)cc1 (stereo not drawn) the results were GALK inh -2.0%, TrxR1 inh 12.6µM*, miR-21 FLuc -0.7%, PINK1 modulator 1.1% and TrxR1 substrate -0.5%.
For CC1=C(/C=C/C(C)=C/C=C/C(C)=C/C(=O)O)C(C)(C)CCC1 the results were GALK inh -1.8%, TrxR1 inh 25.1µM*!, miR-21 FLuc -14.8%, PINK1 modulator 3.5% and TrxR1 substrate 8.1%[57.1 µM].
Screening CC(/C=C\c1ccccc1)=C/C(=O)O returned TrxR1 inh 3.1%[57.1 µM], miR-21 FLuc -0.8%, PINK1 modulator -1.1% and TrxR1 substrate 4.9%[57.1 µM].
For COc1ccc2c(c1)OC(C)CN(CCNC(=O)C1CCOC1)C2 (stereo not drawn) the results were PINK1 modulator 1.8%.
Screening CCOc1cc(C2Nc3cccc4cccc(c34)N2)ccc1O returned GALK inh -0.1%, TrxR1 inh 25.1µM*, miR-21 FLuc -0.7%, PINK1 modulator 0.4% and TrxR1 substrate 3.1%.
For CCOc1ccc(C2Nc3cccc4cccc(c34)N2)cc1OC the results were GALK inh -2.2%, TrxR1 inh 28.2µM*, miR-21 FLuc -1.4%, PINK1 modulator 1.1% and TrxR1 substrate 1.1%.
For Cc1nn(-c2ccccc2)c(OC(=O)C(C)(C)C)c1Sc1ccccc1 the results were TrxR1 inh 50.7%, miR-21 FLuc 6.8%, PINK1 modulator 2.9% and TrxR1 substrate -3.2%.
COc1ccc(NC(=O)CSc2ccc(-c3ccco3)nn2)cc1 was read as GALK inh 3.6%, TrxR1 inh 50.1µM*, miR-21 FLuc -7.8%, PINK1 modulator 6.4% and TrxR1 substrate -9.2%.
Screening CC(=O)Nc1cccc(NC(=O)CSc2ccc(-c3ccco3)nn2)c1 returned GALK inh -2.3%, TrxR1 inh 56.2µM*, miR-21 FLuc -3.7%, PINK1 modulator -1.4% and TrxR1 substrate -4.1%.

Overlap with the part before: 3 entries, followed by the next part.
For Cc1nn(-c2ccccc2)c(OC(=O)C(C)(C)C)c1Sc1ccccc1 the results were TrxR1 inh 50.7%, miR-21 FLuc 6.8%, PINK1 modulator 2.9% and TrxR1 substrate -3.2%.
COc1ccc(NC(=O)CSc2ccc(-c3ccco3)nn2)cc1 was read as GALK inh 3.6%, TrxR1 inh 50.1µM*, miR-21 FLuc -7.8%, PINK1 modulator 6.4% and TrxR1 substrate -9.2%.
Screening CC(=O)Nc1cccc(NC(=O)CSc2ccc(-c3ccco3)nn2)c1 returned GALK inh -2.3%, TrxR1 inh 56.2µM*, miR-21 FLuc -3.7%, PINK1 modulator -1.4% and TrxR1 substrate -4.1%.
`Cc1cc(C)cc(NC(=O)CSc2ccc(-c3ccco3)nn2)c1` gave GALK inh 0.0%, TrxR1 inh -59.1%, miR-21 FLuc 4.3%, PINK1 modulator 1.8% and TrxR1 substrate 9.7%[57.1 µM].
`COc1cc(NC(=O)CSc2ccc(-c3ccco3)nn2)cc(OC)c1` gave GALK inh -4.4%, TrxR1 inh 35.5µM*, miR-21 FLuc -2.3%, PINK1 modulator -1.4% and TrxR1 substrate 2.4%.
For CC(=O)Nc1ccc(NC(=O)CSc2ccc(-c3ccco3)nn2)cc1 the results were GALK inh -1.3%, TrxR1 inh inconclusive, miR-21 FLuc -2.6%, PINK1 modulator 16.7% and TrxR1 substrate 20.8%.
O=C(Cn1c(=O)n(-c2ccccc2Cl)c(=O)c2sc3ccccc3c21)NC1CCCCC1 was read as TrxR1 inh 22.2%, miR-21 FLuc -4.6%, PINK1 modulator 0.8% and TrxR1 substrate 21.7%.
